The entries are a selection whose mix differs from that of the whole data set. Activity calls are given as the source filed them. The call rests on the fitted dose curve; in most records, active means well fitted activation curve with a large enough effect; inconclusive means small, poorly fitted or top-dose-only effect; inactive means no such curve, though single readings can be large or run the other way.
Assay: qHTS Assay for Small Molecule Inhibitors of Mitochondrial Division or Activators of Mitochondrial Fusion; further: % of control where 0% means no effect; nearly all actives have a fitted effect of over 45% in size
Conditions: S. cerevisiae fusion-defective mutant growth rescue, CellTiterGlo 48 h; at 46.1 µM (top of the series)
Excerpt: NIH Chemical Genomics Center [NCGC] NIH Molecular Libraries Probe Production centers Network [MLPCN] MLPCN Grant: MH081279-01 Assay Submitter (PI): Jodi M. Nunnari NCGC Assay Overview: The budding yeast S. cerevisiae is a powerful system to study mitochondrial fusion. Unlike other organisms, yeast cells without functional mitochondrial DNA (mtDNA) can be propagated and studied as long as they maintain a mitochondrial compartment and are provided with a fermentable carbon source. When mitochondrial fusion is blocked in yeast, mitochondrial tubules rapidly fragment and division continues unopposed. Under conditions where fusion is compromised in mammalian cells, nearly identical changes in mitochondrial structure have been observed. Thus, these findings indicate that steady state mitochondrial structure in cells is a characteristic and specific indicator of fusion activity. Mounting evidence has pointed to a connection between mitochondrial dynamics and apoptosis in mammalian cells. These studies indicate that in mammalian cells mitochondrial dynamics are more integrated into cellular processes than in yeast cells and have evolved not only to distribute the organelle but also to aid in the regulation of cellular homeostasis. Mitochondrial fusion proteins attenuate apoptosis by inhibiting the release of cytochrome c from mitochondria, in part by controlling cristae structures. Thus, small molecules that inhibit mitochondrial […] may promote apoptosis and potentially act as novel chemotherapeutics and stimulation of apoptosis has become an attractive target of anti-cancer therapies. To identify inhibitors of mitochondrial division, we exploit the growth phenotypes of mitochondrial fusion-defective mutants. The temperature sensitive fusion alleles, such as fzo1-1 and mgm1-5, cause mitochondrial membranes to fragment in cells under non-permissive conditions and cells lose mtDNA, and are unable to grow in the presence of non-fermentable carbon source glycerol. Inhibiting mitochondrial division rescues growth. We have developed and optimized a luminescence cell viability assay in 1536 well format for the identification of inhibitors in the yeast mitochondrial fusion-defective assay.
The yeast glycerol stocks where kindly supplied by the laboratory of Dr. Jodi Nunnari, University of California, Davis. All yeast glycerol stock solutions were stored in single use aliquots at -80C. The CellTiterGlo luminescence reagent, containing luciferase and luciferin, were purchased from Promega, and the reagents were stored according to manufacturer's instructions. The Buffer components for the YPEG yeast growth medium were purchased from Sigma-Aldrich (St. Louis, MO). YPEG growth medium: 1% (w/v) yeast extract, 2% (w/v) Bacto-peptone, 3% Ethanol, 3% glycerol, 0.4mM Tryptophan, 0.36mM Adenine. qHTS Assay Protocol: 1.#Dispense 2.5 ul yeast growth medium per 1536 well plate. 2.#Transfer 23 nl per well of compound to plate. 3.#Dispense 2.5 ul yeast solution at appropriate seeding density per well. 4.#Incubate for 48 hours at 37C. 5.#Dispense 5 ul of CellTiterGlow solution per well. 6.#Incubate at ambient for 10 minutes. 7.#Read using bio-luminescence protocol on Viewlux.

SMILES | growth rescue (activation)
CCOC(=O)c1ccc(NP(C)(=O)Oc2ccc(Cl)cc2)cc1 (stereo not drawn) | inactive: 3.96%
CN(C)C(=O)c1c([N+](=O)[O-])cc([N+](=O)[O-])cc1[N+](=O)[O-] | inactive: -6.48%
CP(=O)(Nc1ccc(Cl)cc1)Oc1ccc(F)cc1 (stereo not drawn) | inactive: 3.53%
CC(C)(C)c1ccc(OP(C)(=O)O)cc1 | inactive: -1.31%
COc1ccccc1OP(C)(=O)Nc1ccccc1Br (stereo not drawn) | inactive: -2.57%
CCc1ccc(OP(C)(=O)Nc2cccnc2)cc1 (stereo not drawn) | inactive: 8.35%
CP(=O)(Oc1ccccc1)N1CCOC1=O (stereo not drawn) | inactive: -6.97%
O=C(OCCCN1CCCC1)C(O)(c1ccccc1)C1CCCCC1 (stereo not drawn) | inactive: -7.83%
COc1ccccc1OP(C)(=O)Nc1c(C)n(C)n(-c2ccccc2)c1=O (stereo not drawn) | inactive: 0.349%
COc1ccc(OP(C)(=O)Nc2ccc(Br)cc2)cc1 (stereo not drawn) | inactive: -0.409%
CCN(CC)CC(O)COC(=O)C(O)(c1ccccc1)C1CCCCC1 (stereo not drawn) | inactive: -1.55%
CCc1ccc(OP(C)(=O)O)cc1 | inactive: -2.74%
COc1ccccc1OP(C)(=O)Nc1ccc(C)cc1C (stereo not drawn) | inactive: 2.15%
CP(=O)(Nc1ccccn1)Oc1ccccc1 (stereo not drawn) | inactive: 1.93%
O=[N+]([O-])c1cc([N+](=O)[O-])c(Nc2ccccn2)c([N+](=O)[O-])c1 | inactive: -30.1%
Cc1c(NP(C)(=O)Oc2ccc(C(C)C)cc2)c(=O)n(-c2ccccc2)n1C (stereo not drawn) | inactive: 2.48%
CN(C)CCOC(=O)C(O)(c1ccccc1)C1CCCC1 (stereo not drawn) | inactive: -1.27%
COc1ccc(OP(C)(=O)Nc2ccccn2)cc1 (stereo not drawn) | inactive: -0.79%
COc1ccccc1OP(C)(=O)Nc1ccc(Br)cc1 (stereo not drawn) | inactive: 2.83%
CP(=O)(OCCOc1ccccc1)OCCOc1ccccc1 | inactive: 0.184%
CP(=O)(Nc1ccc(Cl)cc1Cl)Oc1ccccc1 (stereo not drawn) | inactive: 4.98%
Cc1nc2ccc3ccccc3c2o1.O=[N+]([O-])c1cc([N+](=O)[O-])c(O)c([N+](=O)[O-])c1 | inactive: -0.145%
COc1ccc(OP(C)(=O)Nc2ccccc2Br)cc1 (stereo not drawn) | inactive: 9.44%
COc1ccccc1OP(C)(=O)Nc1ccc(C)c(C)c1 (stereo not drawn) | inactive: 1.37%
Cc1cc(C)cc(OP(C)(=O)Nc2cccc(C(F)(F)F)c2)c1 (stereo not drawn) | inactive: 13.1%
CCCCCOc1ccc(NP(C)(=O)Oc2ccc(Cl)cc2Cl)cc1 (stereo not drawn) | inactive: 3.19%
CP(=O)(Nc1ccccc1)Oc1ccc(F)cc1 (stereo not drawn) | inactive: -0.0174%
CCN(CC)CCCOC(=O)C(O)(c1ccccc1)C1CCCCC1 (stereo not drawn) | inactive: -0.958%
